Paper PMC10526228

Key:
Experiment in all cases: SPR; cytokine immobilised by amine coupling on a ProteOn GLH chip (ProteOn XPR36); S100A6 as analyte, 63 nM–8 µM, 300 s; 25 °C; 10 mM HEPES, 150 mM NaCl, 1 mM CaCl2, 0.05% Tween 20, pH 7.4; heterogeneous ligand model (single-site scheme for IL-2)
[1] = molecular target: granulocyte colony-stimulating factor (human) (UniProt P09919)
interferon-ω1 (human) = interferon-ω1 (human) (UniProt P05000)
interleukin-10 (human) = interleukin-10 (human) (UniProt P22301)
interleukin-19 (human) = interleukin-19 (human) (UniProt Q9UHD0)
interleukin-20 (human) = interleukin-20 (human) (UniProt Q9NYY1)
interleukin-22 (human) = interleukin-22 (human) (UniProt Q9GZX6)
interleukin-27 (human) = molecular target: interleukin-27 (human)
interleukin-3 (human) = interleukin-3 (human) (UniProt P08700)
interleukin-31 (human) = interleukin-31 (human) (UniProt Q6EBC2)
interleukin-5 (human) = interleukin-5 (human) (UniProt P05113)
leptin (human) = leptin (human) (UniProt P41159)
[2] = molecular target: stem cell factor, soluble form (human) (UniProt P21583)

Kd1 (KD, ligand population 1) [1]: 3.91 nM | Kd2 (KD, ligand population 2) [1]: 1.68 µM | kd1 (koff, ligand population 1) [1]: 0.000772 s⁻¹ | kd2 (koff, ligand population 2) [1]: 0.0104 s⁻¹ | Kd1 (KD, ligand population 1) (interferon-ω1 (human)): 228 nM | Kd2 (KD, ligand population 2) (interferon-ω1 (human)): 1.11 µM | kd1 (koff, ligand population 1) (interferon-ω1 (human)): 0.000471 s⁻¹ | kd2 (koff, ligand population 2) (interferon-ω1 (human)): 0.0129 s⁻¹ | Kd1 (KD, ligand population 1) (interleukin-10 (human)): 361 nM | Kd2 (KD, ligand population 2) (interleukin-10 (human)): 2.13 µM | kd1 (koff, ligand population 1) (interleukin-10 (human)): 0.000398 s⁻¹ | kd2 (koff, ligand population 2) (interleukin-10 (human)): 0.015 s⁻¹ | Kd1 (KD, ligand population 1) (interleukin-19 (human)): 147 nM | Kd2 (KD, ligand population 2) (interleukin-19 (human)): 496 nM | kd1 (koff, ligand population 1) (interleukin-19 (human)): 0.000628 s⁻¹ | kd2 (koff, ligand population 2) (interleukin-19 (human)): 0.0277 s⁻¹ | Kd1 (KD, ligand population 1) (interleukin-20 (human)): 45.1 nM | Kd2 (KD, ligand population 2) (interleukin-20 (human)): 385 nM | kd1 (koff, ligand population 1) (interleukin-20 (human)): 0.000308 s⁻¹ | kd2 (koff, ligand population 2) (interleukin-20 (human)): 0.00914 s⁻¹ | Kd1 (KD, ligand population 1) (interleukin-22 (human)): 593 nM | Kd2 (KD, ligand population 2) (interleukin-22 (human)): 1.31 µM | kd1 (koff, ligand population 1) (interleukin-22 (human)): 0.00357 s⁻¹ | kd2 (koff, ligand population 2) (interleukin-22 (human)): 0.0326 s⁻¹ | Kd1 (KD, ligand population 1) (interleukin-27 (human)): 1.16 µM | Kd2 (KD, ligand population 2) (interleukin-27 (human)): 2.8 µM | kd1 (koff, ligand population 1) (interleukin-27 (human)): 0.000961 s⁻¹ | kd2 (koff, ligand population 2) (interleukin-27 (human)): 0.0147 s⁻¹ | Kd2 (KD, ligand population 2) (interleukin-3 (human)): 402 nM | kd1 (koff, ligand population 1) (interleukin-3 (human)): 0.000271 s⁻¹ | kd2 (koff, ligand population 2) (interleukin-3 (human)): 0.00728 s⁻¹ | Kd1 (KD, ligand population 1) (interleukin-31 (human)): 106 nM | Kd2 (KD, ligand population 2) (interleukin-31 (human)): 256 nM | kd1 (koff, ligand population 1) (interleukin-31 (human)): 0.000464 s⁻¹ | kd2 (koff, ligand population 2) (interleukin-31 (human)): 0.0111 s⁻¹ | Kd1 (KD, ligand population 1) (interleukin-5 (human)): 11.6 nM | Kd2 (KD, ligand population 2) (interleukin-5 (human)): 32.3 nM | kd1 (koff, ligand population 1) (interleukin-5 (human)): 0.000247 s⁻¹ | kd2 (koff, ligand population 2) (interleukin-5 (human)): 0.00507 s⁻¹ | Kd1 (KD, ligand population 1) (leptin (human)): 325 nM | Kd2 (KD, ligand population 2) (leptin (human)): 385 nM | kd1 (koff, ligand population 1) (leptin (human)): 0.00318 s⁻¹ | kd2 (koff, ligand population 2) (leptin (human)): 0.000287 s⁻¹ | Kd1 (KD, ligand population 1) [2]: 8.72 nM | Kd2 (KD, ligand population 2) [2]: 1.9 µM | kd1 (koff, ligand population 1) [2]: 0.000257 s⁻¹ | kd2 (koff, ligand population 2) [2]: 0.00451 s⁻¹
Substance: S100A6 protein (from UniProt P06703 1-90) (natural protein)
